Results taken from patent publication US7785879B1, “Pregnane X receptor compositions, crystals and uses thereof” (Schering Corporation, priority 2005, dated 2010).

Assays:
PXR-LBD-L10-SRC = biological target: T1, PXR-LBD-L10-SRC (Homo sapiens, UniProt O75469); assay: Temperature-dependent circular dichroism, stabilization of PXR-LBD-L10-SRC; conditions: 25 uM compound
T1 sequence (O75469 with tags, fused parts or gaps): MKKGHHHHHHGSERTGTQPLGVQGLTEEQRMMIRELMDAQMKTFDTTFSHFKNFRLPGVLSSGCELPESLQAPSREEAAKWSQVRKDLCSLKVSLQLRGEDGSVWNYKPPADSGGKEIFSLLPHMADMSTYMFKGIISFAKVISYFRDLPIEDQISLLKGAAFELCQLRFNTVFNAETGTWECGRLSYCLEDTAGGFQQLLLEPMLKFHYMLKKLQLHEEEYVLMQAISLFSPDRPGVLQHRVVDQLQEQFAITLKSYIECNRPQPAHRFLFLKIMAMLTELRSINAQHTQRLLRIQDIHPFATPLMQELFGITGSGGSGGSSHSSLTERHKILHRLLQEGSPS
Experimental: The CD is a function of wavelength.
PXR-LBD-L10-SRC was expressed and purified essentially as set forth above. […] Stabilization of PXR-LBD-L10-SRC in the presence of various substances was measured by temperature-dependent circular dichroism. PXR-LBD-L10-SRC was assayed under the following conditions:
Buffer: 25 mM Hepes, pH 7.9, 150 mM NaCl, 5% glycerol, 10 mM BME,
heating ramp at 2° C./min
temperature range: 30-80° C.

PXR = biological target: T2, PXR (Homo sapiens, UniProt O75469); conditions: read-out: reported Kd; Table 2; cited from earlier work
T2 sequence (O75469 1-434): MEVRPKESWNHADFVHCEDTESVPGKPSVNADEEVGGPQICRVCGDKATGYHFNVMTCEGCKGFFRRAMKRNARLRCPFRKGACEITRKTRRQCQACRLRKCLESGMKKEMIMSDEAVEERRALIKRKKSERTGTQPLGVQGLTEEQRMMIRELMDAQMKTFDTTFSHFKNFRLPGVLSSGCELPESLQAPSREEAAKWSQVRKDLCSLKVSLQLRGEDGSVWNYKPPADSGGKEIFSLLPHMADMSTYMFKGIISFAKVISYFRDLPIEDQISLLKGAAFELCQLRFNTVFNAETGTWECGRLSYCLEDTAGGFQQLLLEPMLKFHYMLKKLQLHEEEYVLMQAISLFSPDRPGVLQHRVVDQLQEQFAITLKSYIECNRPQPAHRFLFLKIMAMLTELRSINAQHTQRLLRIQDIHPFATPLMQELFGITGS

Hyperforin
Tm (PXR-LBD-L10-SRC; 2.5 μM protein, 225 nm, apo enzyme Tm 52.9 ± 0.05): 59.7 C | Kd (PXR-LBD-L10-SRC; from CD thermal denaturation): 100 nM | Kd (PXR): 200 nM
